The values below are quoted from earlier work in US8598344B2, “CDKI pathway inhibitors and uses thereof” (Senex Biotechnology, priority 2009, dated 2013).

Amino acid sequences for entries named in this document (tags omitted). A change or cut given only in a name is not applied to a line headed by its entry.
UniProt P49336: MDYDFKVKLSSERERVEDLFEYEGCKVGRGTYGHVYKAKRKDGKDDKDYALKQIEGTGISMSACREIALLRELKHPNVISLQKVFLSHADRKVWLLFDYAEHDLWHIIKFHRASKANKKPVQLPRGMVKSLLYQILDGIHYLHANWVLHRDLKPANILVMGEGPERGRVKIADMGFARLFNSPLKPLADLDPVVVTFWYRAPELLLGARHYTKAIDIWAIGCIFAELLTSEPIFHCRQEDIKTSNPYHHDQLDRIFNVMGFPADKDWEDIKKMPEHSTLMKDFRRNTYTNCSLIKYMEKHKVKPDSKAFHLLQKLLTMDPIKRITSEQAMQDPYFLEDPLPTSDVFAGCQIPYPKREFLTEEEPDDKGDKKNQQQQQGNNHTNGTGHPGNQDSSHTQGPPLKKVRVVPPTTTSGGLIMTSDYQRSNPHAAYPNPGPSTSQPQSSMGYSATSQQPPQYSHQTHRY

As usually defined, the pKd is −log10 of the Kd, conventionally taken in molar units.

pKd: −log10 of the molar value. A value given as a limit tells only on which side of the number the result lay.

The test system of series [1] is human umbilical vein endothelial cells (HUVECs). As to conditions: cited from earlier work.
A further series has as its target T1, CDK8 (Homo sapiens, UniProt P49336).
T1 construct: purchased KinomeScan, a division of Ambit Biosciences
As to conditions: cited from earlier work.

cortistatin A: in series [1] (Aoki et al., 2007), the “fold differential KB-3-1 vs HUVEC” value is 3,900 fold. In addition, the “fold higher for other human cells than for HUVECs” value in series [1] is > 3,000 fold. Besides, the “POC, CDK8” value at CDK8 (10 μM, data from Cee et al. (2009)) is 0.95 POC. In addition, the pKd on CDK8 (Cee et al. (2009)) was 7.77.
